This series is described as follows: Conductivity, EPA method 120.1. It is filed as physicochemical. Particulars: samples 1% by volume in water, diluted with de-ionized water; predicted results. The method, then:
To further evaluate the materials prepared in Examples I and II, samples of the materials are diluted with deionized water to provide material that contains 1% by volume of the respective material in water.
In order to test for conductivity the samples are each diluted with de-ionized water for analysis. The testing is completed using a Mettler Toledo Seven Excellence Meter with a conductivity probe following EPA method 120.1.

Regarding `O=S(=O)(O)O` [Dilute sulfuric acid, sulfuric acid], the Conductivity is reported as 556 mS/cm.

The values are drawn from patent publication US20230340373A1, “CLEANING WIPES” (Tygrus LLC, priority 2022, published 2023).
